Results from the CATMoS acute toxicity set (Mansouri et al. 2021).

Columns and labels:
[1] = GHS categories as the set defines them, by LD50: 1 up to 5, 2 up to 50, 3 up to 300, 4 up to 2000, 5 above 2000 mg/kg; settings: rat; in vivo; po
rat acute oral toxicity = settings: in vivo

Row | SMILES | GHS category [1] | LD50 (rat acute oral toxicity)
1 | NC(=O)c1cc([N+](=O)[O-])cc([N+](=O)[O-])c1N | 5 | –
2 | C/N=C(\N)N[N+](=O)[O-] | 5 | –
3 | COc1cc2c(c3oc4cccc(O)c4c(=O)c13)C1C=COC1O2 (stereo not drawn) | – | 120 mg/kg
